The record followed here is PMC10215199 (Antioxidants, 2023).

The chains behind the UniProt entries cited, without tags or fusion partners.
UniProt P21397, whole entry: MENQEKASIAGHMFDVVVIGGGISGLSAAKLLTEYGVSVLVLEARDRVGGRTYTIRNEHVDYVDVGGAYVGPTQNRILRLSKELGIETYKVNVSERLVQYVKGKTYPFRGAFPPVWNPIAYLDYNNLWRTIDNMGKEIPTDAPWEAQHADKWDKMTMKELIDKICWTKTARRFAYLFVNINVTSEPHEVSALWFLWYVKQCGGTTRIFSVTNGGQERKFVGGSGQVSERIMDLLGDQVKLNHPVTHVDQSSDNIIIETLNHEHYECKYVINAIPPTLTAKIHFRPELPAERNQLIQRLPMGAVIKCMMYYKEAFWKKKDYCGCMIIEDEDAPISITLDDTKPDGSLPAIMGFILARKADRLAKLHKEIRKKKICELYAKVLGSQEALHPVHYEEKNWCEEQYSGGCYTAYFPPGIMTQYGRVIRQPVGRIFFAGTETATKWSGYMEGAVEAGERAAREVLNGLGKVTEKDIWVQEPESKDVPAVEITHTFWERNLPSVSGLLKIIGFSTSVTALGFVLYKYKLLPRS

This assay has as its target recombinant human MAO-A (Homo sapiens, UniProt P21397). Kind of assay: Monoamine oxidase-A inhibition assay (Amplex red fluorescence). The class given is biochemical. The conditions noted are these: single dose concentration of 100 µM; ±sem. Here is the method:
Two isoforms of MAOs, namely MAO-A and MAO-B, are expressed in CNS, showing different substrate specificity. Consequently, different pharmacological effects can be elicited depending on the inhibited MAO isoform. Therefore, the prepared O^6-aminoalkyl-hispidol analogs were evaluated against both recombinant human MAO-A and MAO-B isoforms following the well-established spectrophotometric method.
2. Biological evaluations
2.1. In vitro assay of human monoamine oxidases inhibition
The MAO activity was quantified by measuring fluorescence intensity evoked by Amplex red reaction in which Amplex red reacts with hydrogen peroxide from the MAO reaction to produce highly fluorescent resorufin. The test compound in DMSO (final concentration: 1 nM – 10 μM or 10 nM – 100 μM ) and hMAO enzyme (Sigma Aldrich, St. Louis, MO, USA) in 50 mM sodium phosphate buffer (pH 7.4, final protein amount: ~1.25 μg of MAO-A/well and 2.5 μg of MAO-B/well) were loaded on 96-well black plate and incubated for 15 min at 37 °C. […] The fluorescence was measured using a microplate reader (SpectraMax®i3, Molecular Device, San Jose, CA, USA) with an excitation at 545 nm and an emission at 590 nm. […]
of compounds were determined as the mean ± S.E.M. in triplicate from the dose-response inhibition curves using SigmaPlot® 13.0.

Take `C#CCN(C)CCCOc1ccc(Cl)cc1Cl` [Clorgyline, reference compound]: the “MAO-A % Inhibition” value was found to be 100.49 ± 0.03%.
